Test results taken from PMC8429736, “Pharmacological characterization of mutant huntingtin aggregate-directed PET imaging tracer candidates” (Scientific Reports, 2021).

Chains of the proteins cited; added tags and fusions are not shown. A line that says so, or that is headed by a name, gives the form on record, which may keep a tag or linker. Residues count along the entry.
UniProt P42858, 1-87 with tags or gaps with the stated changes limits assumed: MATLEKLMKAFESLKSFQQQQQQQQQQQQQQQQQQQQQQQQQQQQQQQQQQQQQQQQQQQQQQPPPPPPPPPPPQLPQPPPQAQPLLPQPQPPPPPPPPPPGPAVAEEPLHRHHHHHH
UniProt P10636, 623-695 limits assumed: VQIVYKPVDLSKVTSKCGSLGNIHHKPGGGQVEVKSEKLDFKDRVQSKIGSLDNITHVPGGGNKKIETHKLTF
UniProt P05067, 672-713 limits assumed: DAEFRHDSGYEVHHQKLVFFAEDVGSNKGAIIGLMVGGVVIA

Assays:
Exon1-Q46 aggregates [1] = target: T1, Exon1-Q46 aggregates (Homo sapiens, UniProt P42858, INS38QQQQQQQQQQQQQQQQQQQQQQQQQ); assay: RBA competition binding against tritiated 3, Exon1-Q46 aggregates; settings: read-out: IC50 Exon1-Q46, 0.3 nM tritiated 3 as radioligand, 1 µM aggregates, mean ± SD
Q46 aggregates [2] = assay: RBA competition binding against tritiated 3, Q46 aggregates; settings: read-out: IC50 Q46, 0.3 nM tritiated 3 as radioligand, 1 µM aggregates, mean ± SD
Q46 aggregates [3] = assay: RBA saturation binding, Q46 aggregates; settings: read-out: Kd Q46
[4] = target: phospho-Tau tangles (AT8 antibody) (Homo sapiens, UniProt P10636); assay: HR ARG co-registration with AT8 antibody, human AD brain sections; settings: 10 nM CHDI-180, 10 nM CHDI-626, 0.1 nM PiB, 1 nM T808; tested as the radiolabelled form
[5] = test system: mHTT aggregates in human HD brain sections; assay: ARG, human post-mortem HD frontal cortex sections; settings: 1 nM radioligand; gray matter; tested as the radiolabelled form
Exon1-Q46 aggregates [6] = target: T1, Exon1-Q46 aggregates; assay: RBA saturation binding, recombinant Exon1-Q46 aggregates; settings: read-out: Kd Exon1-Q46; tritiated compound; mean ± SD; tested as the radiolabelled form
[7] = tested as the radiolabelled form; cited from earlier work
[8] = target: beta amyloid plaques in human AD brain sections (Homo sapiens, UniProt P05067); assay: ARG, human post-mortem AD frontal cortex sections; assay type: binding; settings: tested as the radiolabelled form
[9] = target: beta amyloid plaques (6E10 antibody) (Homo sapiens, UniProt P05067); assay: HR ARG co-registration with 6E10 antibody, human AD brain sections; assay type: binding; settings: 10 nM CHDI-180, 10 nM CHDI-626, 0.1 nM PiB, 1 nM T808; tested as the radiolabelled form
[10] = ARG, human post-mortem CTRL frontal cortex sections; settings: 1 nM radioligand; gray matter; tested as the radiolabelled form
[11] = test system: mHTT aggregates in R6/2 mice brain sections; assay: In vitro ARG, R6/2 mouse brain sections; settings: 4-, 8- and 12-week-old R6/2 mice; tested as the radiolabelled form
[12] = test system: beta amyloid/tau aggregates in post-mortem AD patient brain homogenates; assay: ADbh RBA competition format; settings: tested as the radiolabelled form
[13] = test system: beta amyloid/tau aggregates in post-mortem AD patient brain homogenates; assay: ADbh RBA saturation (direct) binding; settings: 100 µg homogenate per well, tested as the radiolabelled form
[14] = tested as the radiolabelled form
[15] = tritiated compound, mean ± SD, tested as the radiolabelled form

SMILES | co-registration with AT8-positive phospho-Tau immunoreactivity [4] | IC50 (Exon1-Q46 aggregates [1]; [14]) [nM] | Kd (Exon1-Q46 aggregates [6]) [nM] | IC50 (Q46 aggregates [2]; [14]) [nM] | co-registration with 6E10-positive beta amyloid plaques [9] | Kd (Q46 aggregates [3]; [15]) [nM] | further results
COc1ccc2cc(C(C)=C(C#N)C#N)ccc2c1 |  |  |  |  |  |  | IC50 (Exon1-Q46 aggregates [1]): 9.9 nM; IC50 (Q46 aggregates [2]): 10.3 nM; Kd (Q46 aggregates [3]; higher protein concentrations (10–30 µM) applied): 140 nM
COc1ccc(NC(=O)c2ccn3c(n2)nc2ccccc23)cn1 | no co-registration | 2.9 | 4.5 | 3.6 | no co-registration | 5.8 | binding to frontal cortical sections from HD donors [5]: 2.5 ± 1.0 fmol/mg tissue; plasma, microsomal, and hepatocyte stability [7]: acceptable; binding in AD post-mortem brain tissues ([8]; 1 nM radioligand): 0.8 ± 0.6 fmol/mg; binding to frontal cortical sections, CTRL tissue [10]: 0.5 ± 0.7 fmol/mg tissue; specific binding to STR, CTX and HPC with age [11]: age-dependent increase in specific binding
COc1ccc(COc2ccc3oc(-c4cnccn4)nc3c2)nc1 |  | 1.2 | 2.5 | 1.8 |  | 4.7 | 
COc1ccc2c(c1)sc1nc(C(=O)Nc3ccc(OC)nc3)cn12 | not AT8 | 0.4 | 5.5 | 0.7 | co-registration with 6E10 | 7.8 | displacement of 4 at 0.1 µM ([12]; radioligand 4, compound 0.1 µM): fully displace; IC50 ([12]; read-out: IC50, AD brain homogenate, against 0.5 nM radiolabeled 4): 2.5 nM; specific binding to human AD brain by ARG ([8]; 4 at 0.3 nM): specific binding to human AD brain was confirmed; Bmax, AD brain homogenate [13]: 3.7 pmol/mg; Kd ([13]; read-out: Kd, AD brain homogenate): 3 nM
COc1ccc2c(c1)sc1nc(C(=O)Nc3cccnc3)cn12 |  | 5.8 | 5.2 | 4.7 |  | 8.7 | 

Read-outs that look alike come from different tables or passages of the source.
